Laboratory results published in patent US20090074761A1, “Therapeutic beta-glucan combinations” (priority 2007, published 2009).

System: SKOV-3 cells
Type: cell-based, human
Experimental: As described above, β-glucan functions with anti-tumor antibodies to activate complement receptor 3 (CR3) and recruit neutrophils that mediate CR3 (iC3b-receptor)-dependent cytotoxicity of tumors coated with iC3b. […] SKOV-3 cells were incubated with anti-VEGF mAb or anti-Her-2/neu mAb in the presence of human complement. Cells were then washed and co-cultured with human neutrophils (E:T ratio=20:1) in the presence of soluble β-glucan. Cytotoxicity was calculated as in Li et al., J Immunol 177:1661-1669. […] Anti-Her-2/neu mAb (trastuzumab) (B) was used as a positive control since SKOV-3 cells overexpress HER2/neu.

**Q.** How did the “synergy with β-glucan to elicit CR3-dependent cellular cytotoxicity (CR3-DCC)” value turn out when trastuzumab was run?
**A.** Its value is “synergized with β-glucan”.
